Yeast UUG start: modulators of start codon recognition fidelity in yeast; S. cerevisiae UUG-firefly luciferase reporter, luminescence/redox ratio; AID 602363; 350,000 tested, 0.13% active; activity score, % at 18.7 µM;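 active = replicate mean at a twofold rise or more, about +100% in these data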;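 also: firefly luciferase made from a UUG start codon reports start codon fidelity; reporter light over untreated wells divided by growth signal over untreated wells; some hits fall short of that in this replicate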
MITF act: activators of MITF-driven TRPM1 promoter activity in SK-MEL-5 cells; 300,000 compounds, 0.75% hits; SK-MEL-5 TRPM1-promoter luciferase, 24 h; % of positive control, neutral wells = 0; AID 588334; activation, % at 12.5 µM;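 active means mean activation of at least 80% with every replicate also reaching 80%; inconclusive means mean reaches 80% but some replicate falls short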;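 further: 0% = neutral control wells and 100% = parthenolide positive control wells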
miR-122 sensor: inhibitors of miR-122 in Huh7 cells. Huh7 miR-122 Renilla luciferase sensor, 48 h; neutral wells = 0, positive control = 100. activation (reporter increase), % at 12.5 µM. 340,000 compounds, 0.3% hits;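 active means mean replicate activation score at least 90 and every replicate individually at or above 90; inconclusive means only one of the two criteria met; inactive means neither criterion met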;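 further: higher luciferase means less miR-122 activity so hits act as miR-122 inhibitors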
Wnt act: activates Wnt/beta-catenin signaling in a reporter cell assay; activation, % at 9.35 µM; 300,000 compounds, 1.2% hits; AID 743398; activator, plate reader; in the data active means activation above about 30%, passing the limit was not always enough; inconclusive means no clear call, values can overlap the other calls;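 further: 0% = neutral control wells and 100% = positive control wells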
PglD DTNB: PglD (C. jejuni) enzyme inhibition | purified PglD enzyme, DTNB colorimetric CoA detection | inhibition, % at 12.5 µM | 360,000 compounds, 0.098% hits | AID 602405; in the data active means inhibition above about 16%, passing the limit was not always enough; inconclusive means no clear call, values can overlap the other calls
esBAF inh: SWI/SNF esBAF complex inhibition; AID 602393; reporter increase, % at 12.5 µM; 350,000 compounds, 2% hits; mouse ES cells, Bmi1-luciferase knock-in reporter, 24 h; 100% = twice the neutral-well signal; in the data active means activation above about 40%; inconclusive means no clear call, values can overlap the other calls;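 further: 0% = median of the plate's neutral control wells and 100% = double that signal; a rise in the Bmi1 reporter signal indicates esBAF inhibition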
Numbers without * were called inactive; u = inconclusive; x = no result given; ! = repeats disagree; [ ] = another dose, or the depositor's remark. An excerpt weighted towards active compounds, which were near 2.8% of everything screened.

molecule | MITF act | Yeast UUG start | Wnt act | esBAF inh | miR-122 sensor | PglD DTNB
Nc1nc(CSC(=S)N2CCOCC2)nc(Nc2ccc(F)cc2)n1 | 28 | -12 | 7 | 66* | 2 | -4
Cc1ccc(Nc2nc(N)nc(CSC(=S)N3CCOCC3)n2)c(C)c1 | 57 | x | 13 | x | x | x
COc1ccc(Nc2nc(N)nc(CSC(=S)N3CCOCC3)n2)cc1 | 30 | -15 | 9 | 49* | -5 | 2
Cc1nc(-c2cc(-c3ccc(Cl)cc3)no2)cs1 | 10 | x | 36* | x | x | x
Clc1ccc(-c2cc(-c3ccccc3)on2)cc1 | u | -15 | 54* | 21 | -1 | 5
CO[C@@H]1CN(C)C(=O)c2cc(NC(=O)c3cnccn3)ccc2OC[C@H](C)N(C)C[C@@H]1C | x | 0 | x | 0 | -4[16.7 µM] | -3
CN1C(=O)c2cc(NC(=O)C3CCOCC3)ccc2OC[C@H]2O[C@H](CC(=O)O)CC[C@H]21 | x | -8 | x | -3 | 0[16.7 µM] | -1
COc1cc2c(cc1OC)CN(c1ccc(C(F)(F)F)cn1)CC2 | 37 | -12 | 4 | 41* | x | -1
Nc1nn(-c2ccccc2)c(N)c1N=Nc1cccc(F)c1 | x | -21 | 20 | x | 21 | -1
Cc1nn(-c2ccccc2)c(N)c1N=Nc1cccnc1 | 97* | x | 11 | x | x | x
C/C=C/c1cnc2c(c1)C(=O)N([C@@H](C)CO)C[C@@H](C)[C@@H](CN(C)C(=O)c1cccc(F)c1)O2 | x | -9 | x | -1 | x | 1
COc1cccc(CNC(=O)CCC2CCCN(C(=O)c3cc4ccccc4o3)C2)c1 (stereo unspecified) | 84* | 0 | 25 | 62* | -1 | -3
COc1ccnc(CSC(N)=Nc2ccc(F)cc2)c1 | 30 | -14 | x | 56* | -3 | 7
COc1cccc(N=C(N)N=C(N)N)c1 | 4 | -12 | -2 | -2 | 6 | 4
Clc1ccc(COn2nnc3ccccc32)c(Cl)c1 | 99* | -2 | 22 | u | -9 | 4

The listing continues.
molecule | MITF act | Yeast UUG start | Wnt act | esBAF inh | miR-122 sensor | PglD DTNB
O=[N+]([O-])c1ccc(COn2nnc3ccccc32)cc1 | 27 | x | 1 | x | x | x
C[C@@H]1CN([C@H](C)CO)C(=O)c2cc(-c3cccnc3)cnc2O[C@H]1CN(C)C(=O)Nc1ccc2c(c1)OCO2 | x | -2 | x | 3 | -3[16.7 µM] | 3
Cc1nn(CCOc2ccccc2)c(=O)n1-c1ccccc1 | 22 | -22 | 27 | 43* | 11 | -3
Cc1nn(CCOc2ccccc2)c(=O)n1-c1ccc(Cl)cc1 | 19 | 8 | 3 | 39 | -1 | -6
C=CCN=C1S/C(=C\c2ccc(N(C)C)cc2)C(=O)N1CC=C | 99* | x | 37* | x | x | x
C=CCN1C(=O)/C(=C/c2ccc(OC)cc2)S/C1=N/c1nccs1 | 18 | x | -3 | x | x | x
COc1ccc(NC(=O)c2cc3ccccn3n2)cc1 | x | -18 | 31* | -23 | x | -2
CCC(C)C(NC(=O)c1ccccc1NC(=O)c1ccc(C)cc1)C(=O)O (stereo unspecified) | 8 | x | 7 | x | x | x
O=C(Nc1ccccc1)c1ccccc1O | x | -26 | x | 51* | 1 | 7
Cc1ccc(C(=O)Nc2ccccc2C(=O)NC(C(=O)O)C(C)C)cc1 (stereo unspecified) | 25 | -6 | 5 | 31*! | -1 | 10
COc1ccc(C(=O)Nc2cccc(OC(=O)c3ccco3)c2)cc1 | 110* | -33 | 28 | 11 | -2 | 1
O=C(Nc1ccccc1)Nc1ccc(NC(=O)c2ccccc2O)cc1 | 7 | -7 | 2 | 16 | 19 | 4
C[C@@H]1CN([C@H](C)CO)C(=O)c2cccc(NC(=O)c3nc4ccccc4s3)c2O[C@H]1CN(C)Cc1ccc(C(=O)Nc2ccccc2N)cc1 | x | -7 | x | 12 | -2[16.7 µM] | -2
O=C(N[C@H]1CC[C@@H](CCNS(=O)(=O)c2ccc(F)cc2)O[C@@H]1CO)c1cccnc1 | x | -7 | x | 0 | x | 7
COc1cccc(C(=O)NC(=S)Nc2ccc(N3CCCC3)cc2)c1 | 14 | -35 | x | -7 | -1 | -2

Copied from the listing for reference:
molecule | MITF act | Yeast UUG start | Wnt act | esBAF inh | miR-122 sensor | PglD DTNB
COc1ccc(NC(=O)c2cc3ccccn3n2)cc1 | x | -18 | 31* | -23 | x | -2
CCC(C)C(NC(=O)c1ccccc1NC(=O)c1ccc(C)cc1)C(=O)O (stereo unspecified) | 8 | x | 7 | x | x | x
O=C(Nc1ccccc1)c1ccccc1O | x | -26 | x | 51* | 1 | 7
Cc1ccc(C(=O)Nc2ccccc2C(=O)NC(C(=O)O)C(C)C)cc1 (stereo unspecified) | 25 | -6 | 5 | 31*! | -1 | 10
COc1ccc(C(=O)Nc2cccc(OC(=O)c3ccco3)c2)cc1 | 110* | -33 | 28 | 11 | -2 | 1
O=C(Nc1ccccc1)Nc1ccc(NC(=O)c2ccccc2O)cc1 | 7 | -7 | 2 | 16 | 19 | 4

(list continues)
molecule | MITF act | Yeast UUG start | Wnt act | esBAF inh | miR-122 sensor | PglD DTNB
COc1ccc(C(=O)Nc2ccccc2C(=O)Nc2ccccc2)cc1 | x | 15 | 26 | 46* | -3 | -1
COc1cccc(C(=O)NC(=S)Nc2ccc(N(C)C)cc2)c1 | u | -11 | 17 | 61* | -5 | -1
COc1cc(NC(=O)c2ccccc2)cc(OC)c1 | 23 | -12 | 20 | 65* | 3 | 0
COc1cccc(C(=O)Nc2ccc(C(=O)c3ccccc3)cc2)c1 | x | -7 | 6 | 42* | 4 | -2
Cc1ccc(-c2ccc3c(c2)O[C@H](CN(C)Cc2ccncc2)[C@@H](C)CN([C@H](C)CO)S3(=O)=O)cc1 | x | 0 | x | -34 | 48[16.7 µM] | -6
COc1ccc(NC(=O)c2cccc(NC(=O)c3ccccc3)c2)cc1 | x | -5 | 2 | 41* | 3 | 0
COc1cccc(C(=O)Nc2ccc(C(=O)O)cc2)c1 | 6 | 1 | x | -4 | 113* | 1
COC(=O)c1ccc(NC(=O)c2cccc(OC)c2)cc1 | 60 | -12 | 0 | 47* | -3 | 3
CNC[C@@H]1Oc2ccc(NC(=O)Cc3ccccc3)cc2C(=O)N([C@H](C)CO)C[C@H]1C | x | 0 | x | -7 | -5[16.7 µM] | 1
C/C=C/c1cnc2c(c1)C(=O)N([C@@H](C)CO)C[C@@H](C)[C@H](CN(C)C(=O)NC1CCCCC1)O2 | x | 3 | x | 2 | -6[16.7 µM] | 0
Cc1noc(C)c1S(=O)(=O)Nc1ccc2c(c1)C(=O)N([C@H](C)CO)C[C@H](C)[C@@H](CN(C)Cc1ccc(Oc3ccccc3)cc1)O2 | x | 4 | x | -6 | 6[16.7 µM] | 0
O=C([C@@H]1[C@@H](CO)[C@@H]2Cn3c(cccc3=O)[C@@H]2N1C(=O)CC1CC1)N1CCCCC1 | x | x | x | -1 | -3[16.7 µM] | 3
CC1CCc2nc3sc4c(c3c(N)c2C1)CCCC4 (stereo unspecified) | 58 | x | 45* | x | x | x
N#C[C@H]1[C@H](c2ccc(C#CCC3CCCC3)cc2)[C@H](CO)N1C(=O)CN1CCOCC1 | x | 10 | x | 7 | x | -2
COC(=O)c1sc(-c2ccc(C(C)(C)C)cc2)cc1NC(=O)c1ccccc1C(=O)O | x | x | 46* | x | x | x

The listing continues.
molecule | MITF act | Yeast UUG start | Wnt act | esBAF inh | miR-122 sensor | PglD DTNB
CCC(N=c1cc(-c2ccc(OC)cc2)oc2ccc(C)cc12)C(=O)O (stereo unspecified) | 53 | x | 47* | x | x | x
CC(C)Cc1ccc(-c2cc3nc(NCCc4ccc(S(N)(=O)=O)cc4)ccn3n2)cc1 | x | -3 | 2 | 92* | 0 | 4
CC(C)Cc1ccc(-c2cc3nc(NCCCn4ccnc4)ccn3n2)cc1 | x | -22 | -3 | 61* | 2 | -3
NS(=O)(=O)c1ccc(CCNc2ccn3nc(-c4ccccc4)cc3n2)cc1 | x | -9 | 0 | 29 | x | 2
FC(F)(F)c1cccc(-c2cc3nc(NCCCn4ccnc4)ccn3n2)c1 | x | 3 | -1 | 28 | 0 | 3
Cc1csc(SC(C)C(=O)NCc2ccc3c(c2)OCO3)n1 (stereo unspecified) | 14 | -20 | -2 | -6 | -8 | -2
